Laboratory results from patent US6716449B2 (priority 2000, dated 2004).

Settings: in comparison to a 15 mg dose of hydrocodone

In the case of `CN1CC[C@]23c4c5ccc(O)c4O[C@H]2C(=O)CC[C@H]3[C@H]1C5` [Hydromorphone], the “Equianalgesic dose, Calculated Dose” value is reported as 3.375 mg.
